Tests used:
PDZ1-2 of PSD95 [1] = molecular target: T1, PDZ1-2 of PSD95 (Homo sapiens, UniProt P78352); experiment: Fluorescence polarization competition binding assay of PDZ1-2 with dimeric 5-FAM labeled probe; conditions: probe 0.5 nM fixed, increasing PDZ1-2; TBS buffer pH 7.6; read-out: Kd of probe for PDZ1-2 (saturation binding)
PDZ1-2 of PSD95 [2] = molecular target: T1, PDZ1-2 of PSD95; experiment: fluorescence polarization saturation binding, probe 0.5 nM, PDZ1-2 titrated
PDZ1-2 of PSD95 [3] = molecular target: T1, PDZ1-2 of PSD95; experiment: Fluorescence polarization competition binding assay of PDZ1-2 with probe 5-FAM-NA-1; conditions: read-out: IC50, binding assay of PDZ1-2 with probe (5-FAM-NA-1); PDZ1-2 2500 nM; probe 5-FAM-NA-1 0.25 nM; TBS buffer pH 7.6
[4] = In vitro plasma stability experiment (compounds), without or with tPA; conditions: human plasma, 37° C., initial concentration 10 μM; for With tPA T1/2: with rt-PA 0.135 mg/mL
[5] = Toxicological experiment: serum UREA and CREA after 5 days of i.v. dosing; type: in vivo; conditions: male SD rats, 30 mg/kg i.v. once daily for 5 days, serum 2 h after dosing on day 5
Experimental: The compounds of Examples 1-8 were accurately weighed into suitable EP tubes, and the vehicle (saline) was added to formulate a solution of a concentration of 15 mg/mL. The solution was filtered using a 0.2 μm filter for future use.
A total of 18 male SD rats of 6-7 weeks of age were used for test. After the animal quarantine and acclimatization period, the animals were randomly divided into 6 groups according to their body weights measured before grouping, vehicle control group (saline) as well as example compounds groups, 3 animals/group. Using the above prepared solution, the animal was administered intravenously via the tail vein at a dosage of 30 mg/kg and a dosing volume of 2 mL/kg. The dosing volume for each animal was calculated according to the body weight. Administration was performed once daily for 5 consecutive days. After 2 h of administration on day 5, the animals were deeply anesthetized by intraperitoneal injection of sodium pentobarbital. […] The concentrations of UREA and CREA in the serum were detected using a biochemical analyzer. The percentage change of each example compound relative to the vehicle control group was calculated using the formula: %=(Concentration of example compound−Concentration of vehicle control group)/Concentration of vehicle control group.

Amino acid sequences for entries named in this document (tags omitted). Residues count along the entry.
UniProt P78352, 61-249 limits assumed: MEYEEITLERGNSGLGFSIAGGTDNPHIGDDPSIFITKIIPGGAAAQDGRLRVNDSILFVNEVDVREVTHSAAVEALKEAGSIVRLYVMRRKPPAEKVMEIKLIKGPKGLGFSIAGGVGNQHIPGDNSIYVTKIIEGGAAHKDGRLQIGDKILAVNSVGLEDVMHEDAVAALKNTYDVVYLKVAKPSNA

Substance	IC50 (PDZ1-2 of PSD95 [3])	With tPA T1/2 [4]	Without tPA T1/2 [4]	further results
5-FAM-Gly-N,N-Di(PEG2-Ile-Glu-Thr-Ala-Val-OH	–	–	–	Kd (PDZ1-2 of PSD95 [1]): 0.0207 ± 0.00098 µM
5-FAM-labeled probe (5-FAM-Gly-N,N-Di(PEG2-Ile-Glu-Thr-Ala-Val-OH, molecular weight: 1867.8), or 5-FAM-Gly-N,N-Di(PEG2-Ile-Glu-Ser-Asp-Val-OH) (peptide)	–	–	–	Kd (PDZ1-2 of PSD95 [2]): 0.0207 µM
YGR(Me)2KKRR(Me)2QR(Me)2RRkLSSIESDV [Compound B1]	7.7 µM	–	–	–
YGR*KKRrQrRRkLSSIESDV [Compound G3]	5.2 µM	11.6 h	>33.33 h	–
YGRKKRR*QRRRKLSSIESDV [Compound G5]	5.23 µM	–	–	–
YGRKKRRQR*RRKLSSIESDV [Compound G9]	6.32 µM	–	–	–
YGrKKRR*QrRRkLSSIESDV [Compound G7]	3.96 µM	12.65 h	>33.33 h	–
YGrKKRrQR(Me)RRkLSSIESDV [Compound H3]	13.5 µM	>33.33 h	>33.33 h	CREA, percentage change compared to vehicle control group [5]: 46.2%; UREA, percentage change compared to vehicle control group [5]: 46.4%
YGrKKRrQR*RRkLSSIESDV [Compound G11]	–	8.17 h	>33.33 h	–
